Consider three molecules from US10130617B2, “Chemical compounds” (AstraZeneca AB, priority 2013, dated 2018).

By UniProt entry, the sequences of proteins in these tests, tags left out. Residues count along the entry.
UniProt P03372, whole entry: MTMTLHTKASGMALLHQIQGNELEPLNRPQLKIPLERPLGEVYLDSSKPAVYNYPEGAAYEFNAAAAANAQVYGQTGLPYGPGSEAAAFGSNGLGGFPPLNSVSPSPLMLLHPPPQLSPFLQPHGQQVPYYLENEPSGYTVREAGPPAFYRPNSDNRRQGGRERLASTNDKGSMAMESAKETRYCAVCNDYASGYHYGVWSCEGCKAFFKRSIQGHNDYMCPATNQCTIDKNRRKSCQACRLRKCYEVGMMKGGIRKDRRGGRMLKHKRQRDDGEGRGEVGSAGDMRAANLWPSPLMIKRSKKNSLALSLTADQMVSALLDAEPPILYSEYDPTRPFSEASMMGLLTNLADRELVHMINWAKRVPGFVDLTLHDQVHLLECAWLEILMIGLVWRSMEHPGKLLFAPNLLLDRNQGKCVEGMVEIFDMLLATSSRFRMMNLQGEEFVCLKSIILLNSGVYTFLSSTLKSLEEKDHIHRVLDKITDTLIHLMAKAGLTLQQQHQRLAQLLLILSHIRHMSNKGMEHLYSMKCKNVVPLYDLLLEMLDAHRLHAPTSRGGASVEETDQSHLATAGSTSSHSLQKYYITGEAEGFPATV
UniProt P03372, 311-547: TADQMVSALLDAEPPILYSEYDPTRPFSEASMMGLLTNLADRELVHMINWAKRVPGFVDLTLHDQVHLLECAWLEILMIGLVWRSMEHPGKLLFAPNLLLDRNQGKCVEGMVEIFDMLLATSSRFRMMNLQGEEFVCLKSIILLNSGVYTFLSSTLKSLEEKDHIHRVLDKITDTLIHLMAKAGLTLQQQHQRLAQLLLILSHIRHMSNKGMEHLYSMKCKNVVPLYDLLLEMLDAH

Read-outs that look alike come from different tables or passages of the source.

What is called IC50 is the concentration that inhibits the measured activity by half.

Assay [1] addresses Estrogen Receptor (ERα receptor level) in MCF-7 human ductal carcinoma breast cell line (Homo sapiens (Human), UniProt P03372). The assay is described as follows: MCF-7 ER Down Regulation Assay (immuno-fluorescence). Type of assay: cell-based. The method, then:
MCF-7 ER Down Regulation Assay
The ability of compounds to down-regulate Estrogen Receptor (ER) numbers was assessed in a cell based immuno-fluorescence assay using the MCF-7 human ductal carcinoma breast cell line. […] Following cell seeding, plates were incubated overnight at 37° C., 5% CO2 (Liconic carousel incubator). […] The Echo uses acoustic technology to perform direct microplate-to-microplate transfers of DMSO compound solutions to assay plates. The system can be programmed to transfer volumes as low as 2.5 nL in multiple increments between microplates and in so doing generates a serial dilution of compound in the assay plate which is then back-filled to normalise the DMSO concentration across the dilution range. Compounds were dispensed onto the cell plates with a compound source plate prepared as above producing a 12 pt duplicate 3 μM to 3 pM dose range with 3 fold dilutions and one final 10 fold dilution using the Integrated Echo 2 workcell. […] The fixing method described above was carried out on the Integrated Echo 2 workcell. Immunostaining was performed using an automated AutoElisa workcell. […] The plates were incubated overnight at 4° C. […] The mean total intensity was normalized for cell number giving the total intensity per cell. The data was exported into a suitable software package (such as Origin) to perform curve fitting analysis.

The target in assay [2] is recombinant human Estrogen Receptor alpha ligand binding domain (ER alpha-LBD (GST)) (Homo sapiens (Human), UniProt P03372). Put plainly: ERα Binding Assay (LanthaScreen TR-FRET competition).

Regarding `C[C@@H]1Cc2c([nH]c3ccccc23)[C@@H](c2c(F)cc(/C=C/C(=O)O)cc2F)N1CC(C)(C)F` [Example 1, (E)-3-(3,5-Difluoro-4-((1R,3R)-2-(2-fluoro-2-methylpropyl)-3-methyl-2,3,4,9-tetrahydro-1H-pyrido[3,4-b]indol-1-yl)phenyl)acrylic acid], the DC50 in assay [1] (read-out: ER down regulation IC50 value; MCF-7 cells; single experiment or average of repeats) was determined as 140 pM. The IC50 in assay [2] is below 640 pM. Regarding `C[C@H](CF)CN1[C@H](c2ccc(/C=C/C(=O)O)cc2)c2[nH]c3ccccc3c2C[C@H]1C` [Example 4, (E)-3-(4-((1R,3R)-2-((S)-3-fluoro-2-methylpropyl)-3-methyl-2,3,4,9-tetrahydro-1H-pyrido[3,4-b]indol-1-yl)phenyl)acrylic acid], the DC50 in assay [1] (MCF-7 cells; single experiment or average of repeats; read-out: ER down regulation IC50 value) stood at 990 pM. Regarding `C[C@@H]1Cc2c([nH]c3ccccc23)[C@@H](c2ccc(/C=C/C(=O)O)cc2)N1CC(C)(C)F` [Example 2, (E)-3-(4-((1R,3R)-2-(2-Fluoro-2-methylpropyl)-3-methyl-2,3,4,9-tetrahydro-1H-pyrido[3,4-b]indol-1-yl)phenyl)acrylic acid], the IC50 came to 850 pM in assay [1] (MCF-7 cells; single experiment or average of repeats) and 1000 pM in assay [2] (read-out: ER binding IC50 value).
